For one experiment, the target named is recombinant human LDHA (Homo sapiens, UniProt P00338). Description: hLDHA enzymatic activity assay (kinetic spectrofluorimetric, β-NADH fluorescence decrease). The format is biochemical. The conditions noted are these: pure enantiomers (Table 3); for pIC50: read-out: hLDHA IC50.
For another experiment, the target named is recombinant human LDHB (Homo sapiens, UniProt P07195). As to the kind of experiment: hLDHB enzymatic activity assay (same fluorimetric protocol). The conditions noted are these: read-out: hLDHB IC50; pure enantiomers (Table 3). Type of experiment: biochemical.

Chains of the proteins cited; added tags and fusions are not shown.
UniProt P07195, whole entry: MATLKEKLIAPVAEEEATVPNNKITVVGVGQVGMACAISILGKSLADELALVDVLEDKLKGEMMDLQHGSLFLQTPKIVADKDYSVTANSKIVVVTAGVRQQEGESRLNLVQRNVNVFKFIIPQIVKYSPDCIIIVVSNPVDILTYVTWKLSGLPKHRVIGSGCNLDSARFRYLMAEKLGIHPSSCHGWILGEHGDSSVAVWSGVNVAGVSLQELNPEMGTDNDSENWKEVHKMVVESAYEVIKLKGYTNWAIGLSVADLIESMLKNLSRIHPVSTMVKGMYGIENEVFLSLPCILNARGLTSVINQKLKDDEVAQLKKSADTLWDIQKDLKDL

pIC50: −log10 of the molar value.

Turning to `COc1ccc(C23CC(C4=C(CC(c5ccc(Cl)cc5)OC4=O)O2)c2cc([N+](=O)[O-])ccc2O3)cc1OC` (single isomer, unassigned) [(−)-66a], the Selectivity Rate (IC50 hLDHB/hLDHA) on recombinant human LDHA worked out at 2.7. For the same compound, the pIC50 on recombinant human LDHA is 4.83; on recombinant human LDHB, 4.39.

For `COc1ccc(C23CC(C4=C(CC(c5ccc(Cl)cc5)OC4=O)O2)c2cc([N+](=O)[O-])ccc2O3)cc1OC` (single isomer, unassigned) [(+)-66a], on recombinant human LDHA, the Selectivity Rate (IC50 hLDHB/hLDHA) amounted to 4.8 and the negative-log IC50 (pIC50) was 5.04. Besides, at recombinant human LDHB, the negative-log IC50 (pIC50) was 4.36.

As a reminder, the pIC50 is the IC50 on a negative log10 scale, so that one unit is a factor of ten.
